According to ChEMBL document CHEMBL1123068, “2-Fluoroformycin and 2-aminoformycin. Synthesis and biological activity” (J Med Chem, 1985):

What was measured:
[1] = substrate: Nc1nc(N)c2[nH]nc([C@@H]3O[C@H](CO)[C@@H](O)[C@H]3O)c2n1; assay: (§1) Kinetic parameter was determined against calf intestine adenosine deaminase expressed as Vmax
[2] = substrate: Nc1nc(F)nc2c([C@@H]3O[C@H](CO)[C@@H](O)[C@H]3O)n[nH]c12; assay: as §1
[3] = substrate: Nc1ncnc2c([C@@H]3O[C@H](CO)[C@@H](O)[C@H]3O)[nH]nc12; assay: as §1

B1: Adenosine deaminase (Bos taurus), P56658 (protein)
chain: MAQTPAFNKPKVELHVHLDGAIKPETILYYGRKRGIALPADTPEELQNIIGMDKPLSLPEFLAKFDYYMPAIAGCREAVKRIAYEFVEMKAKDGVVYVEVRYSPHLLANSKVEPIPWNQAEGDLTPDEVVSLVNQGLQEGERDFGVKVRSILCCMRHQPSWSSEVVELCKKYREQTVVAIDLAGDETIEGSSLFPGHVKAYAEAVKSGVHRTVHAGEVGSANVVKEAVDTLKTERLGHGYHTLEDATLYNRLRQENMHFEVCPWSSYLTGAWKPDTEHPVVRFKNDQVNYSLNTDDPLIFKSTLDTDYQMTKNEMGFTEEEFKRLNINAAKSSFLPEDEKKELLDLLYKAYGMPSPASAEQCL
B1 showed a Vmax [1] of 1250 M/min/mg, a Vmax [2] of 17 M/min/mg and a Vmax [3] of 4000 M/min/mg.
